The list is not random: actives were taken first. Their share in the collection is about 0.46%.
HCMV UL50-53 inh = inhibitors of HCMV UL50-UL53 nuclear egress complex interaction; HTRF UL50-UL53 interaction, normalized percent inhibition; inhibition, % (concentration not given with the values); hit rate 0.15% among 190,000; in the data active means inhibition above about 27%, passing the limit was not always enough
GIV-Gai inh = inhibitors of GIV GBA-motif binding to rat Galpha-i3; P08753; Galpha-i3/FITC-GIV peptide fluorescence polarization, 90 min; hits give low values; scaled: aluminum fluoride 0%, vehicle 100%; percent of control (FP), % (no concentration beside the values); 210,000 compounds, 0.42% hits;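 active means replicate mean at 85% of control or lower, very high polarization wells dropped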;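 further: wells of about 15 µL received 100 nL stock; the first replicate is given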
* hit, by the source's call; . = not tested or not shown.

CC(C)Nc1cc(Br)c2noc3c2c1C(=O)c1ccccc1-3
  HCMV UL50-53 inh: .	GIV-Gai inh: -55*
O=C(O)CSCC(=O)Nc1ccccc1
  HCMV UL50-53 inh: -14	GIV-Gai inh: .
COc1ccc(C2CC(=O)C3=C(C2)Nc2ccccc2NC3c2cc([N+](=O)[O-])ccc2Cl)cc1 (stereo not given)
  HCMV UL50-53 inh: 41*	GIV-Gai inh: 106
COc1ccc(C2CC(=O)C3=C(C2)Nc2ccccc2NC3c2ccccc2Br)cc1 (stereo not given)
  HCMV UL50-53 inh: -14	GIV-Gai inh: 104
COc1cccc2c1C(=O)c1c(O)c3c(c(O)c1C2=O)C[C@@](O)(C(C)=O)CC3O[C@H]1CC(N)C(O)C(C)O1 (stereo not given in full)
  HCMV UL50-53 inh: -249	GIV-Gai inh: .
CC(=O)[C@]1(O)Cc2c(O)c3c(c(O)c2[C@@H](O[C@H]2C[C@H](N)[C@H](O)[C@H](C)O2)C1)C(=O)c1ccccc1C3=O
  HCMV UL50-53 inh: -145	GIV-Gai inh: -46*
COc1cccc2c1C(=O)c1c(O)c3c(c(O)c1C2=O)C[C@@](O)(C(=O)CO)CC3O[C@H]1CC(N)C(O)C(C)O1 (stereo not given in full)
  HCMV UL50-53 inh: -190	GIV-Gai inh: .
COc1cccc2c1C(=O)c1c(O)c3c(c(O)c1C2=O)C[C@@](O)(C(C)=O)C[C@@H]3O[C@H]1C[C@H](N)[C@H](O)[C@H](C)O1
  HCMV UL50-53 inh: -181	GIV-Gai inh: 47*
CN1/C(=C/C=C/c2oc3ccccc3[n+]2C)Oc2ccccc21
  HCMV UL50-53 inh: .	GIV-Gai inh: -5.9*
Cc1cc(Nc2ccc(Br)cc2)nc(C)n1
  HCMV UL50-53 inh: 16	GIV-Gai inh: 103
CC1CCN(CCNc2cc(N(C)C)c3noc4c3c2C(=O)c2ccccc2-4)CC1
  HCMV UL50-53 inh: -135	GIV-Gai inh: -4.4*
CCNc1cc(N(C)C)c2noc3c2c1C(=O)c1ccccc1-3
  HCMV UL50-53 inh: .	GIV-Gai inh: -21*
CN(C)c1cc(Nc2ccc(Cl)cc2)c2c3c(onc13)-c1ccccc1C2=O
  HCMV UL50-53 inh: -23	GIV-Gai inh: 111
Cc1ccc(Nc2cc(N(C)C)c3noc4c3c2C(=O)c2ccccc2-4)cc1
  HCMV UL50-53 inh: .	GIV-Gai inh: 115
COc1ccc(C2=Nc3ccccc3N(CC(=O)Nc3cccc(C(C)=O)c3)C(=O)C2)cc1
  HCMV UL50-53 inh: .	GIV-Gai inh: 101

CCOC(=O)c1c[nH]c2ccc(C(F)(F)F)cc2c1=O
  HCMV UL50-53 inh: -15	GIV-Gai inh: 100
COc1ccc(/C=c2/sc3nc(=O)cnn3c2=O)cc1
  HCMV UL50-53 inh: .	GIV-Gai inh: 110
Cc1ccc(/C=c2/sc3nc(=O)cnn3c2=O)cc1
  HCMV UL50-53 inh: 72*	GIV-Gai inh: 92
COc1ccc(OC)c(CCNC(=O)Cn2ncc3c(=O)oc4ccc(C)cc4c32)c1
  HCMV UL50-53 inh: -22	GIV-Gai inh: 98
CN(C)c1ccc(-c2nc(-c3cccc(I)c3)cc(=O)o2)cc1
  HCMV UL50-53 inh: .	GIV-Gai inh: -18*
O=c1cc(-c2ccccc2)nc(-c2ccccc2)o1
  HCMV UL50-53 inh: -5	GIV-Gai inh: 101
CC(C)CCNc1nnnc2c1sc1nc(N3CCOCC3)c3c(c12)CCCC3
  HCMV UL50-53 inh: .	GIV-Gai inh: 109
NC(=S)c1cc2ccccc2oc1=O
  HCMV UL50-53 inh: .	GIV-Gai inh: 6.0*
NC(=S)c1cc2ccc(O)cc2oc1=O
  HCMV UL50-53 inh: -107	GIV-Gai inh: 124
O=C(Cn1c(=O)[nH]c2c(-c3ccccc3)c[nH]c2c1=O)NCc1ccccc1
  HCMV UL50-53 inh: -20	GIV-Gai inh: 100
N#C/C(C(=O)c1ccccc1)=C1/SC=C(N)N1c1ccccc1
  HCMV UL50-53 inh: -26	GIV-Gai inh: -51*
CC1=CS/C(=C(/C#N)C(N)=O)N1c1ccccc1
  HCMV UL50-53 inh: -11	GIV-Gai inh: 104
COc1cc2c3c(ccc2c(OC)c1OC)-c1[nH]ncc1CC3
  HCMV UL50-53 inh: -28	GIV-Gai inh: .
CCOC(=O)c1c(/N=C/c2c(O)n(C)c3ccccc23)sc2c1CCC2
  HCMV UL50-53 inh: .	GIV-Gai inh: 111
CCOC(=O)c1c(-c2cccs2)csc1/N=C/c1c(O)n(C)c2ccccc12
  HCMV UL50-53 inh: .	GIV-Gai inh: 44*

In the list so far, two have a cyano group.
N#C/C(C(=O)c1ccccc1)=C1/SC=C(N)N1c1ccccc1
  HCMV UL50-53 inh: -26	GIV-Gai inh: -51*
CC1=CS/C(=C(/C#N)C(N)=O)N1c1ccccc1
  HCMV UL50-53 inh: -11	GIV-Gai inh: 104

Additional structures
CCOC(=O)c1c(-c2cccs2)csc1NC=O
  HCMV UL50-53 inh: .	GIV-Gai inh: 107
CCOC(=O)c1c(/N=C/c2c(O)n(C)c3ccccc23)sc(C)c1C
  HCMV UL50-53 inh: .	GIV-Gai inh: 52*
CC(C)CCNC(=O)Cn1nc(-c2ccccc2)ccc1=O
  HCMV UL50-53 inh: .	GIV-Gai inh: 103
COc1ccc(-c2cc(C(=O)Oc3ccc(Cl)c(C)c3)no2)cc1
  HCMV UL50-53 inh: -13	GIV-Gai inh: 100
CC(=O)n1c2c(c3cc(C)ccc31)CCCC2=O
  HCMV UL50-53 inh: -20	GIV-Gai inh: 102
CN1c2ccccc2Oc2nnc(N3CCN(Cc4ccccc4)CC3)cc21
  HCMV UL50-53 inh: -40	GIV-Gai inh: 104
CN1c2ccccc2Oc2nnc(Cl)cc21
  HCMV UL50-53 inh: 105*	GIV-Gai inh: 104
O=C(NCCn1cncn1)c1cc(-c2ccccc2)cc(S(=O)(=O)N2CCSCC2)c1
  HCMV UL50-53 inh: -15	GIV-Gai inh: .
COc1ccccc1N1CCN(C(=O)c2c(C)oc3ncn(CC(C)C)c(=O)c23)CC1
  HCMV UL50-53 inh: .	GIV-Gai inh: 107
CCN(CC)c1ccc2cc(-c3nc4ccccc4s3)c(=O)oc2c1
  HCMV UL50-53 inh: 3	GIV-Gai inh: 250
CCC(=O)Oc1ccc2cc(-c3nc4ccccc4n3C)c(=O)oc2c1
  HCMV UL50-53 inh: -19	GIV-Gai inh: .
CCN(CC)c1ccc2cc(-c3nc(-c4ccc(Cl)cc4Cl)cs3)c(=O)oc2c1
  HCMV UL50-53 inh: .	GIV-Gai inh: -69*
CCN(CC)c1ccc2cc(-c3nc4ccccc4n3C)c(=O)oc2c1
  HCMV UL50-53 inh: -15	GIV-Gai inh: -24*
COc1ccc(N(C)C(=O)Cn2cnc3sc(C)c(S(=O)(=O)N4CCN(c5ncccn5)CC4)c3c2=O)cc1
  HCMV UL50-53 inh: -27	GIV-Gai inh: 106
CCOc1ccc2c(c1)c(=O)c1cccnc1n2Cc1cccc(OC)c1
  HCMV UL50-53 inh: -22	GIV-Gai inh: 107

Arranged by value in GIV-Gai inh (highest first): 3 from the list above.
Molecule	GIV-Gai inh
COc1ccccc1N1CCN(C(=O)c2c(C)oc3ncn(CC(C)C)c(=O)c23)CC1	107
COc1ccc(-c2cc(C(=O)Oc3ccc(Cl)c(C)c3)no2)cc1	100
CCN(CC)c1ccc2cc(-c3nc(-c4ccc(Cl)cc4Cl)cs3)c(=O)oc2c1	-69*

The listing continues.
COc1cc2c(=O)c(C(=O)c3ccc(C)c(C)c3)cn(Cc3ccccc3F)c2cc1OC
  HCMV UL50-53 inh: 17	GIV-Gai inh: 102
CCCCn1c(NC(=O)c2ccccc2)c(C#N)c2nc3ccccc3nc21
  HCMV UL50-53 inh: 73	GIV-Gai inh: .
CCC(C)n1c(NC(=O)c2ccccc2)c(C#N)c2nc3ccccc3nc21 (stereo not given)
  HCMV UL50-53 inh: 72*	GIV-Gai inh: .
Cc1cc(C)nc(NS(=O)(=O)c2ccc(NC(=O)CSc3nc4c(cc3C#N)CCCCC4)cc2)n1
  HCMV UL50-53 inh: 28*	GIV-Gai inh: 102
COc1ccc(NC(=O)CSc2nc3c(cc2C#N)CCCC3)cc1
  HCMV UL50-53 inh: .	GIV-Gai inh: 103
O=C(O)CONS(=O)(=O)c1ccc(F)cc1
  HCMV UL50-53 inh: -17	GIV-Gai inh: .
CCOC(=O)Cc1csc(NC(=O)Cc2ccccc2)n1
  HCMV UL50-53 inh: -17	GIV-Gai inh: 103
CCSC1=N/C(=C\c2ccc(C(=O)O)cc2)C(=O)S1
  HCMV UL50-53 inh: .	GIV-Gai inh: 106
CCSC1=N/C(=C\c2ccc(N(C)C)cc2)C(=O)S1
  HCMV UL50-53 inh: -4	GIV-Gai inh: 28*
CCOC(=O)C1=C(C(=O)OCC)SC2(S1)C(C(=O)OCC)=C(C(=O)OCC)SC1=C2c2ccccc2N(C)C1(C)C
  HCMV UL50-53 inh: .	GIV-Gai inh: 103
C=C1c2cccc(O)c2C(O)=C2C(=O)C3(O)C(O)=C(C(N)=O)C(=O)C(N(C)C)C3C(O)C12 (stereo not given)
  HCMV UL50-53 inh: 104*	GIV-Gai inh: 103
CN(C)C1C(=O)C(C(N)=O)=C(O)C2(O)C(=O)C3=C(O)c4c(O)ccc(Cl)c4C(O)C3CC12 (stereo not given)
  HCMV UL50-53 inh: -54	GIV-Gai inh: .
CCCCCNC(=O)c1ccc(CN2CCc3c(c(C(=O)N4CCCC4)nn3C)C2)cc1
  HCMV UL50-53 inh: .	GIV-Gai inh: 105
COC(=O)c1ccc(N)cc1O
  HCMV UL50-53 inh: -20	GIV-Gai inh: 100
COC(=O)c1ccc(=O)c2nc3/c(=C/O)c(O)cc(=O)c3[nH]c12
  HCMV UL50-53 inh: 50*	GIV-Gai inh: 100

c1ccc(N=c2[n-][n+](-c3ccccc3)cn2-c2ccccc2)cc1
  HCMV UL50-53 inh: 55*	GIV-Gai inh: .
O=C1CN(c2ccccc2)C(=Nc2ccccc2)S1
  HCMV UL50-53 inh: 7	GIV-Gai inh: 97
COc1ccc(C(O)(C(=O)NN(C(=O)c2ccccc2)c2cccc(C)c2)c2ccc(OC)cc2)cc1
  HCMV UL50-53 inh: .	GIV-Gai inh: 105
CC12COC3(C(=O)Nc4ccc(F)cc4)CC1CCC32C (stereo not given)
  HCMV UL50-53 inh: .	GIV-Gai inh: 106
CC(C)CSc1nc2c(sc3ncccc32)c(=O)n1Cc1ccccc1
  HCMV UL50-53 inh: 62*	GIV-Gai inh: 103
O=C(CSc1nc2c(sc3ncccc32)c(=O)n1Cc1ccc(F)cc1)Nc1ccc(F)c(F)c1
  HCMV UL50-53 inh: 64*	GIV-Gai inh: 101
COc1ccc(Cn2c(SCC(=O)Nc3cccc(Cl)c3)nc3ncccc3c2=O)cc1
  HCMV UL50-53 inh: 2	GIV-Gai inh: 105
O=C(Cn1cnc2c(sc3ncccc32)c1=O)Nc1ccc(F)c(F)c1
  HCMV UL50-53 inh: .	GIV-Gai inh: 104
O=C(CSc1nc2c(sc3ncccc32)c(=O)n1Cc1ccccc1)Nc1ccc(F)c(F)c1
  HCMV UL50-53 inh: 68*	GIV-Gai inh: 102
CCOC(=O)CSc1nc2c(sc3ccccc32)c(=O)n1Cc1ccc(C)cc1
  HCMV UL50-53 inh: .	GIV-Gai inh: 105
COc1ccc(-n2c(-c3ccc(F)cc3)cn3c4c(=O)n(C)c(=O)n(C)c4nc23)cc1
  HCMV UL50-53 inh: -31	GIV-Gai inh: 104

From PubChem BioAssay
